Experimental data taken from patent US6544984B1, “2,3,4,5-tetrahydro-1H-(1,4)benzodiazepine-3-hydroxamic acids” (American Cyanamid Company, priority 1999, dated 2003).

By UniProt entry, the sequences of proteins in these tests, tags left out. Residues count along the entry.
UniProt P78536, 215-824 limits assumed: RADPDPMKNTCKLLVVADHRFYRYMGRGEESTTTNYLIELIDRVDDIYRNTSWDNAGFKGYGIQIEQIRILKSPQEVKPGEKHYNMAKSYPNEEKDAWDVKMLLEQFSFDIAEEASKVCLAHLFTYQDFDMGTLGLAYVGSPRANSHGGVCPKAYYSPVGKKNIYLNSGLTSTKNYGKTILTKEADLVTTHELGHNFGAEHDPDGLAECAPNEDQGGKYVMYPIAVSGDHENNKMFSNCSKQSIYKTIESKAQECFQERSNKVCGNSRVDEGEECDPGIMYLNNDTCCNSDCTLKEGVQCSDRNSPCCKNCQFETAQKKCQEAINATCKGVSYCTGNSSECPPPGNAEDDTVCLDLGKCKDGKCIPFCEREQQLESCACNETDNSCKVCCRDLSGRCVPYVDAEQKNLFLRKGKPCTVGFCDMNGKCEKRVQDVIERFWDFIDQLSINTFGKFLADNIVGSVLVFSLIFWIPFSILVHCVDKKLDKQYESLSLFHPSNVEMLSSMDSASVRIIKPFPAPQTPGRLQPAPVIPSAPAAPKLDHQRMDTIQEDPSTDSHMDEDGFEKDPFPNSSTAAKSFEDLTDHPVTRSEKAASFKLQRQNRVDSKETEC

Biological target: TACE (Homo sapiens, UniProt P78536)
Experiment: Procedure for measuring TACE inhibition (fluorescent peptidyl substrate)
Conditions: read-out: IC50 (nM) TACE

CC#CCOc1ccc(S(=O)(=O)N2Cc3ccccc3N(C(=O)C3CC3)CC2C(=O)NO)cc1 (stereo not shown) [Example 58, 1-Cyclopropylcarbonyl-4-(4-but-ynyloxybenzenesulfonyl)-2,3,4,5-tetrahydro-1H-[1,4]benzodiazepine-3-carboxylic acid, hydorxyamide] was tested, and the IC50 was 10 nM.
